The entries are a selection whose mix differs from that of the whole data set. Active and inactive are the calls of the source.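 The calls were made as follows: active = inhibition above about 21% made by adding two undisclosed values (limit read from the data); inactive = the rest.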
These compounds were tested against Protein arginine N-methyltransferase 1 (Homo sapiens) (UniProt Q99873) (assay: PRMT1 methyltransferase inhibitors, primary screen, biochemical, fluorescence polarization (AID 652257)). Conditions: recombinant PRMT1, activity-based probe fluorescence polarization; at 2.79 µM; stronger effect = higher value.

Amino acid sequences for entries named in this document (tags omitted).
UniProt Q99873, whole entry: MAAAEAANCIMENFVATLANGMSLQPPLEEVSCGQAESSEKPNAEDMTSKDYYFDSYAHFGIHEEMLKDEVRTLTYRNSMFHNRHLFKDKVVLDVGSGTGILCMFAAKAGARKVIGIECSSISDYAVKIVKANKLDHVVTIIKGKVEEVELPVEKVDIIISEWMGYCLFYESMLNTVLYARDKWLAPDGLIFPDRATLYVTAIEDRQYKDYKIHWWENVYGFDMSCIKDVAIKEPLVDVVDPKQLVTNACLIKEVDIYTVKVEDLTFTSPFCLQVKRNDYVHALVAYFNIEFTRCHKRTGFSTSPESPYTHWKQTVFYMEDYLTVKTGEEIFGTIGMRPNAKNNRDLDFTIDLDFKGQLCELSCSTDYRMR

Structure (SMILES)	inhibition
CCC(CO)(C(=O)OC1CN2CCC1CC2)c1ccccc1 (stereo not given)	inactive: -0.79%
COc1cccc(C(c2nnnn2C2CCCC2)N2CCC(n3c(=O)[nH]c4ccccc43)CC2)c1OC (stereo not given)	inactive: -3.6%
COc1cc(OC)cc(C(=O)NCC2(N3CCOCC3)CCCCC2)c1	inactive: -0.85%
COc1cccc(C(=O)N(c2cc(C)cc(C)c2)C2CCN(C(=O)OC(C)(C)C)CC2)c1	inactive: -0.18%
CN1CCC(Nc2ccc(Cl)cc2)CC1	inactive: 1.88%
CN1CCC(Nc2ccc(F)c(Cl)c2)CC1	inactive: 0.24%
CCOc1ncccc1C(=O)NCC1(N2CCOCC2)CCCCC1	inactive: 2.58%
CCCOc1ccc(C(=O)NCC2(N(C)C)CCCCC2)cc1	inactive: -1.6%
O=c1[nH]c2ccccc2n1C1CCN(C(c2cc3ccccc3o2)c2nnnn2C2CCCC2)CC1 (stereo not given)	inactive: 1.78%
O=C(O)C1(Nc2ccccc2)CCN(Cc2ccccc2)CC1	inactive: -3.01%
NN(c1ccccc1)C1CCN(CCc2ccccc2)CC1	inactive: -3.85%
CC(C)(C)OC(=O)N1CCC(Nc2ccccc2)CC1	inactive: 4.1%
CC(C)(C)n1nnnc1C(c1ccnc2ccccc12)N1CCC(n2c(=O)[nH]c3ccccc32)CC1 (stereo not given)	inactive: -2.56%
CCN1CCC(Nc2cccc(F)c2)CC1	inactive: 1.3%
COc1ccc(C(c2nnnn2C2CCCCC2)N2CCC(n3c(=O)[nH]c4ccccc43)CC2)cc1 (stereo not given)	inactive: -1.11%
Cc1ccccc1NC1(C#N)CCN(Cc2ccccc2)CC1	inactive: 1.96%
Cn1c(=O)[nH]cc(N(CCCl)CCCl)c1=O	inactive: -2.39%
CN(C)c1ccc(C(=O)NCC2(N3CCCCC3)CCCCC2)cc1	inactive: -1.58%
O=C(NCC1(N2CCCCC2)CCCCC1)c1ccco1	inactive: 3%
O=c1[nH]c2ccccc2n1C1CCN(C(c2ccnc3ccccc23)c2nnnn2C2CCCCC2)CC1 (stereo not given)	inactive: -2.74%
COc1cc(OC)cc(C(=O)NCC2(N3CCCCC3)CCCCC2)c1	inactive: -4%
CCC(c1nnnn1C1CCCCC1)N1CCC(n2c(=O)[nH]c3ccccc32)CC1 (stereo not given)	inactive: -4.86%

Structure (SMILES)	inhibition
CC(=O)N(c1ccccc1)C1CCNCC1	inactive: -0.7%
COc1cccc(C(c2nnnn2C2CCCCC2)N2CCC(n3c(=O)[nH]c4ccccc43)CC2)c1OC (stereo not given)	inactive: -1.66%
Cc1ccc(NC2(C#N)CCN(Cc3ccccc3)CC2)cc1	inactive: 0.81%
Fc1ccccc1NC1CCN(Cc2ccccc2)CC1	inactive: 2.67%
Cc1ccc(C(=O)NCC2(N3CCCCC3)CCCCC2)o1	inactive: 1.95%
Cc1cc(N(CCCl)CCCl)ccc1C=O	inactive: 2.91%
O=c1[nH]c2ccccc2n1C1CCN(C(c2ccccc2)c2nnnn2C2CCCC2)CC1 (stereo not given)	inactive: -0.55%
CCCN1CCC(Nc2cc(OC)cc(OC)c2)CC1	inactive: 13.3%
c1ccc(CN2CCC(Nc3ccccc3)CC2)cc1	inactive: 1.03%
C/C(N)=N\P(=O)(Oc1ccccc1)Oc1ccccc1	inactive: -6.15%
CN(C)C1(CNC(=O)c2cccc(C#N)c2)CCCCC1	inactive: -3.05%
CC(C)(C)n1nnnc1C(c1cccc2ccccc12)N1CCC(n2c(=O)[nH]c3ccccc32)CC1 (stereo not given)	inactive: -4.35%
CC(C)(C)OC(=O)N1CCC(N(C(=O)c2ccccc2)c2ccc(Cl)cc2)CC1	inactive: -2.53%
N#Cc1ccc(C(=O)NCC2(N3CCCCC3)CCCCC2)cc1	inactive: 3.61%
N/C(=N\O)c1c(N)no[n+]1[O-]	inactive: -2.85%
COc1cccc(C(c2nnnn2C(C)(C)C)N2CCC(n3c(=O)[nH]c4ccccc43)CC2)c1OC (stereo not given)	inactive: -4.63%
CCOC(=O)N1CCC(Nc2ccc(C)cc2)CC1	inactive: 1.86%
CCCCn1nnnc1C(c1cccc(OC)c1OC)N1CCC(n2c(=O)[nH]c3ccccc32)CC1 (stereo not given)	inactive: -3.75%
O=c1[nH]c2ccccc2n1C1CCN(C(c2cccs2)c2nnnn2C2CCCC2)CC1 (stereo not given)	inactive: -2.45%
O=C(OC1CN2CCC1CC2)C1c2ccccc2C=Cc2ccccc21 (stereo not given)	inactive: -2.41%
O=C(NCC1(N2CCOCC2)CCCCC1)c1cc(Br)ccc1Cl	inactive: 0.53%
COc1cc(C(=O)NCC2(N3CCOCC3)CCCCC2)cc(OC)c1C	inactive: 4.54%

Structure (SMILES)	inhibition
CCCCn1nnnc1C(c1ccccc1)N1CCC(n2c(=O)[nH]c3ccccc32)CC1 (stereo not given)	inactive: -0.27%
O=c1[nH]c2ccccc2n1C1CCN(C(c2ccnc3ccccc23)c2nnnn2C2CCCC2)CC1 (stereo not given)	inactive: -2.62%
COc1ccc(C(=O)NCC2(N3CCOCC3)CCCCC2)cc1OC	inactive: -0.54%
NC(=O)C1(Nc2ccccc2)CCN(Cc2ccccc2)CC1	inactive: 0.63%
O=c1[nH]c2ccccc2n1C1CCN(C(c2cccs2)c2nnnn2C2CCCCC2)CC1 (stereo not given)	inactive: 3.39%
O=C(NCC1(N2CCCCC2)CCCCC1)c1cncc(Br)c1	inactive: -3.86%
CN1CCC(Nc2cccc(F)c2)CC1	inactive: -0.56%
CCCOc1ccc(C(=O)NCC2(N(C)C)CCCCC2)cc1OC	inactive: 3.52%
Cc1ccc(C(=O)NCC2(N(C)C)CCCCC2)o1	inactive: -2.55%
COc1ccc(C(c2nnnn2C2CCCC2)N2CCC(n3c(=O)[nH]c4ccccc43)CC2)cc1 (stereo not given)	inactive: -1.09%
CN(C)c1cccc(C(=O)NCC2(N3CCCCC3)CCCCC2)c1	inactive: -2.6%
COC(=O)C1(Nc2ccccc2)CCN(Cc2ccccc2)CC1	inactive: -2.5%
COc1ccc(CN(CCCl)CCCl)cc1Cl	inactive: 8.06%
CC(C)c1ccc(NC2CCN(C(=O)OC(C)(C)C)CC2)cc1	inactive: 1.52%
CCCCn1nnnc1C(c1ccnc2ccccc12)N1CCC(n2c(=O)[nH]c3ccccc32)CC1 (stereo not given)	inactive: -2.74%
O=C(NCC1(N2CCOCC2)CCCCC1)c1cc(F)c(F)cc1Cl	inactive: 1.35%
CCC(c1nnnn1C(C)(C)C)N1CCC(n2c(=O)[nH]c3ccccc32)CC1 (stereo not given)	inactive: -3.1%
COc1cc(OC)c(C(=O)NCC2(N(C)C)CCCCC2)cc1OC	inactive: -1.74%
O=C(NCC1(N2CCCCC2)CCCCC1)c1cccc(C(F)(F)F)c1	inactive: -1.86%
CCCCn1nnnc1C(c1cccc2ccccc12)N1CCC(n2c(=O)[nH]c3ccccc32)CC1 (stereo not given)	inactive: 1.83%
CN1CCN(CCOC(=O)C(O)(c2ccccc2)c2ccccc2)CC1	inactive: -0.62%
CC(C)c1ccc(C(=O)NCC2(N3CCOCC3)CCCCC2)cc1	inactive: 0.71%

Structure (SMILES)	inhibition
COc1ccc(NC2CCN(C(=O)OC(C)(C)C)CC2)cc1	inactive: 6.27%
COc1cc(C(=O)NCC2(N3CCCCC3)CCCCC2)ccc1OC(F)F	inactive: -0.23%
O=C(NCC1(N2CCOCC2)CCCCC1)c1cc(=O)[nH]c2ccccc12	inactive: 6.87%
O=C(NCC1(N2CCCCC2)CCCCC1)c1ccc(OC(F)F)cc1	inactive: 0.01%
CC(C)(C)n1nnnc1C(c1ccccc1OC(F)(F)F)N1CCC(n2c(=O)[nH]c3ccccc32)CC1 (stereo not given)	inactive: -2.8%
CSc1ccc(C(=O)NCC2(N3CCOCC3)CCCCC2)cc1	inactive: -2.72%
O=C(NCC1(N2CCCCC2)CCCCC1)c1cccc([N+](=O)[O-])c1	inactive: -5.95%
N#CC1(Nc2ccccc2)CCN(CCc2ccccc2)CC1	inactive: -2.26%
O=c1[nH]c2ccccc2n1C1CCN(C(c2ccccc2OC(F)(F)F)c2nnnn2C2CCCC2)CC1 (stereo not given)	inactive: 2.97%
CCN1CCC(Nc2ccc(Cl)cc2)CC1	inactive: 3.27%
O=c1[nH]c2ccccc2n1C1CCN(C(c2ccccc2)c2nnnn2C2CCCCC2)CC1 (stereo not given)	inactive: 4.61%
O=c1[nH]c2ccccc2n1C1CCN(C(c2cccc3ccccc23)c2nnnn2C2CCCC2)CC1 (stereo not given)	inactive: -3.09%
COc1cc(C(=O)NCC2(N(C)C)CCCCC2)ccc1OC(F)F	inactive: 0.82%
CCOC(=O)N1CCC(Nc2cccc(C)c2)CC1	inactive: 4.02%
CCOc1ccc(C)cc1CN(CCCl)CCCl	inactive: -0.62%
O=C1CCN(Cc2ccccc2)CC1	inactive: 1.92%
CC(C)(C)n1nnnc1C(c1ccccc1)N1CCC(n2c(=O)[nH]c3ccccc32)CC1 (stereo not given)	inactive: -2.93%
COc1ccc(NC2CCN(CCc3ccccc3)CC2)c(OC)c1	inactive: 3.1%
CCOC(=O)N1CCC(Nc2ccc(F)cc2)CC1	inactive: 1.62%
O=C(NCC1(N2CCCCC2)CCCCC1)c1ccc(F)cc1	inactive: -3.46%
O=P1(N(CCCl)CCCl)SCCCS1	inactive: 1.56%
CCCCn1nnnc1C(c1cc2ccccc2o1)N1CCC(n2c(=O)[nH]c3ccccc32)CC1 (stereo not given)	inactive: -3.17%

Structure (SMILES)	inhibition
CCCCOc1ccc(C(=O)NCC2(N3CCOCC3)CCCCC2)cc1	inactive: -0.74%
O=C(NCC1(N2CCOCC2)CCCCC1)c1cc2ccccc2o1	inactive: -2.85%
Cc1cc(C)cc(N(C(=O)c2ccccc2)C2CCN(C(=O)OC(C)(C)C)CC2)c1	inactive: -2.14%
O=c1[nH]c2ccccc2n1C1CCN(C(c2ccccc2OC(F)(F)F)c2nnnn2C2CCCCC2)CC1 (stereo not given)	inactive: -9.54%
O=C(NCC1(N2CCCCC2)CCCCC1)c1ccc(Cl)nc1	inactive: -0.09%
CCCCn1nnnc1C(c1ccc(OC)cc1)N1CCC(n2c(=O)[nH]c3ccccc32)CC1 (stereo not given)	inactive: 5.8%
CCOC(=O)N1CCC(Nc2ccc(OC)cc2)CC1	inactive: 0.26%
COc1ccc(Cl)cc1C(=O)NCC1(N2CCOCC2)CCCCC1	inactive: -5.72%
O=C(OC1CN2CCC1CC2)C1c2ccccc2Oc2ccccc21 (stereo not given)	inactive: 0.75%
O=c1[nH]c2ccccc2n1C1CCN(C(c2cc3ccccc3o2)c2nnnn2C2CCCCC2)CC1 (stereo not given)	inactive: 6.58%
N#CC1(Nc2ccccc2)CCN(Cc2ccccc2)CC1	inactive: -2.23%
O=C(NCC1(N2CCCCC2)CCCCC1)c1ccc(Cl)s1	inactive: 0.37%
CCCCn1nnnc1C(c1cccs1)N1CCC(n2c(=O)[nH]c3ccccc32)CC1 (stereo not given)	inactive: -7.18%
O=C(NCC1(N2CCCCC2)CCCCC1)c1cccs1	inactive: 1.16%
CCCCn1nnnc1C(CC)N1CCC(n2c(=O)[nH]c3ccccc32)CC1 (stereo not given)	inactive: 2.71%
O=C(NCC1(N2CCCCC2)CCCCC1)c1ccc(=O)[nH]c1	inactive: 2.85%
CCC(c1nnnn1C1CCCC1)N1CCC(n2c(=O)[nH]c3ccccc32)CC1 (stereo not given)	inactive: 4%
CC(C)(C)OC(=O)N1CCC(N(C(=O)c2ccccc2)c2ccc(F)cc2)CC1	inactive: -3.12%
COc1ccc(C(=O)NCC2(N3CCCCC3)CCCCC2)c(OC)c1OC	inactive: 4.82%
COc1ccc(C(=O)NCC2(N3CCCCC3)CCCCC2)cc1	inactive: 0.44%
Cc1cccc(NC2(C#N)CCN(Cc3ccccc3)CC2)c1	inactive: -1.35%
CSc1ccccc1C(=O)NCC1(N2CCCCC2)CCCCC1	inactive: 0.32%
